# Measured values from article PMC4774911, “Biochemical Screening of Five Protein Kinases from Plasmodium falciparum against 14,000 Cell-Active Compounds” (PLoS ONE, 2016).
# Legend:
# [1] = system: human kinases in K562 cell extract; experiment: Kinobead competition assay, kinome-wide summary; format: binding; conditions: K562 extract kinobeads
# [2] = molecular target: PRKACA (Homo sapiens, UniProt P17612); experiment: biochemical
# [3] = molecular target: T1, MAP4K2 (Homo sapiens, UniProt Q12851); experiment: biochemical
# T1 sequence (Q12851 1-820): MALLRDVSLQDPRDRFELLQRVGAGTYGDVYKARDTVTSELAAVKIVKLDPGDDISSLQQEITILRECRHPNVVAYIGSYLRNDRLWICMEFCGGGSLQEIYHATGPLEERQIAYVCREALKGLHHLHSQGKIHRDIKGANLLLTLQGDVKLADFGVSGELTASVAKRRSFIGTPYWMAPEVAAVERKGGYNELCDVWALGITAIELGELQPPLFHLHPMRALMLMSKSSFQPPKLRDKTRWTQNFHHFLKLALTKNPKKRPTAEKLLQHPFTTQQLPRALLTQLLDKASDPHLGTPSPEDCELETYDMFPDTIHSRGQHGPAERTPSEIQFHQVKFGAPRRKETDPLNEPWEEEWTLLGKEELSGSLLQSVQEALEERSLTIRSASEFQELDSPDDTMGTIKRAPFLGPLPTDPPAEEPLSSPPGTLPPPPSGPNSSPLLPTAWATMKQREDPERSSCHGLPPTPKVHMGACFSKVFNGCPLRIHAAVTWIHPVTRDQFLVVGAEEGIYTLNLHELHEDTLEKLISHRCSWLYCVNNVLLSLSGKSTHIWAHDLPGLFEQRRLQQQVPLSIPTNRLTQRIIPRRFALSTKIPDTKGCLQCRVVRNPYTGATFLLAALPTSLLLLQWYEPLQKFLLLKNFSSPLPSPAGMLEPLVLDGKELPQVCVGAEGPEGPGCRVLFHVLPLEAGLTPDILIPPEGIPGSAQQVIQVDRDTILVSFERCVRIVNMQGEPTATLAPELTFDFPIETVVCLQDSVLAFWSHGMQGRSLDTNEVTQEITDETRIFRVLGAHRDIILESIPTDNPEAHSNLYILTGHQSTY
# [4] = molecular target: MAPK6 (Homo sapiens, UniProt Q16659); experiment: biochemical
# [5] = molecular target: SYK (Homo sapiens, UniProt P43405); experiment: biochemical
structure (smiles),measurement,setting,value
Cc1[nH]c(/C=C2\C(=O)Nc3ccc(S(=O)(=O)Cc4c(Cl)cccc4Cl)cc32)c(C)c1C(=O)N1CCC[C@@H]1CN1CCCC1 [TCMDC-125885],Profile against human kinases (in words),[1],clean
same,IC50,[2],> 20 µM
same,IC50,[3],> 20 µM
same,IC50,[4],> 20 µM
same,IC50,[5],> 20 µM
